Measurements from patent US20080261892A1, “Acid Addition Salts of Ac-Phscn-Nh2” (priority 2005, published 2008).

Legend:
[1] = Solution phase stability of free base, methanesulfonic acid salt and nitric acid salt (HPLC), Example 17; type: physicochemical; conditions: solution in distilled water, 25±0.5° C.
Description: (§1) All HPLC spectra were taken on a Waters HPLC that included Breeze software, a Waters 2487 Dual λ Absorbance Detector, a Waters 1525 Binary HPLC Pump, and a Waters 717 plus Autosampler. The column was a Phenomenex Synergi 4μ Hydro-RP 80A, 250×4.60 mm 4μ micron. The 40 minute gradient that was used is described in the table below.
A t=0 h timepoint was taken for each solution. The volumetric flasks were placed in a water bath at 25±0.5° C. and, periodically, a 0.7 mL aliquot was removed and the solution analyzed by HPLC as described in Example 15.

[2] = Solid phase stability of free base, methanesulfonic acid salt and nitric acid salt (HPLC), Example 18; type: physicochemical; conditions: solid stored at 25±0.5° C.
Description: as §1

Ac-Pro-His-Ser-Cys-Asn-NH2 Nitric Acid Salt
% dimer ([1]; 0 h): 6.0% | % monomer ([1]; 0 h): 94.0% | % dimer ([1]; 69 h): 22.7% | % monomer ([1]; 69 h): 77.3% | % dimer ([1]; 140 h): 26.8% | % monomer ([1]; 140 h): 73.2% | % dimer ([1]; 213 h): 27.0% | % monomer ([1]; 213 h): 73.0% | % dimer ([1]; 332 h): 28.6% | % monomer ([1]; 332 h): 71.4% | % dimer ([1]; 408 h): 28.9% | % monomer ([1]; 408 h): 71.1% | % dimer ([1]; 479 h): 30.8% | % monomer ([1]; 479 h): 69.2% | % dimer ([1]; 549 h): 36.4% | % monomer ([1]; 549 h): 63.6% | % dimer ([1]; 645 h): 45.9% | % monomer ([1]; 645 h): 54.1% | % dimer ([1]; 720 h): 54.0% | % monomer ([1]; 720 h): 46.0% | % dimer ([1]; 836 h): 64.0% | % monomer ([1]; 836 h): 36.0% | % dimer ([2]; 0 h): 8.0% | % monomer ([2]; 0 h): 92.0% | % dimer ([2]; 161 h): 7.4% | % monomer ([2]; 161 h): 92.6% | % dimer ([2]; 335 h): 7.8% | % monomer ([2]; 335 h): 92.2% | % dimer ([2]; 498 h): 7.2% | % monomer ([2]; 498 h): 92.8% | % dimer ([2]; 670 h): 7.7% | % monomer ([2]; 670 h): 92.3% | % dimer ([2]; 832 h): 7.7% | % monomer ([2]; 832 h): 92.3% | % dimer ([2]; 1003 h): 7.4% | % monomer ([2]; 1003 h): 92.6% | % dimer ([2]; 1170 h): 7.7% | % monomer ([2]; 1170 h): 92.3% | % dimer ([2]; 1363 h): 6.7% | % monomer ([2]; 1363 h): 93.3% | % dimer ([2]; 1506 h): 7.4% | % monomer ([2]; 1506 h): 92.6% | % dimer ([2]; 1698 h): 7.6% | % monomer ([2]; 1698 h): 92.4%
